Protein sequences, listed by entry. Tags and fused reporters are not part of them.
UniProt P61073, whole entry: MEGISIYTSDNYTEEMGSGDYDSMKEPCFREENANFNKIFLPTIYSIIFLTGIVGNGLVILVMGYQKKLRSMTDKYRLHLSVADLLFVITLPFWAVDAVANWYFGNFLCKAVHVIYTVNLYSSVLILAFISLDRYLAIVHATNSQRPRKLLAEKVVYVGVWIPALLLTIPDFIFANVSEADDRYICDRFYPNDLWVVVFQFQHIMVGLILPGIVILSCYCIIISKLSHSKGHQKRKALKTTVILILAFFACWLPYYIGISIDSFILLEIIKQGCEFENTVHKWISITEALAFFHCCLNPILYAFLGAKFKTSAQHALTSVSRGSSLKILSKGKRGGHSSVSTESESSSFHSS

In paper PMC3711080 (Bioconjugate chemistry, 2011):

Target: chemokine receptor 4 (CXCR4) (human (endogenous in MDAMB231)) (UniProt P61073)
Test: flow cytometry on cells

Kd [nM] | Substance
8.61 | Ac-TZ14011 (peptide)
124 | Ac-TZ14011-DTPA (peptide)
